Test system: mice
Assay: Lethality of phenylalkylamine Ca2+ channel blockers in mice
Assay type: in vivo
Settings: 10 mg/kg i.v.
Source text: […]. The doses administered for these studies were selected to reflect the previously characterized potency of each of the drugs on blocking L-type Ca^2+ channel function. […].

gallopamil
Deaths (n = 5): 4

Source: US20100137403A1, “METHOD FOR ENHANCING COGNITION OR INHIBITING COGNITIVE DECLINE” (priority 2008, published 2010)
